From article PMC6770782

Target: canine Na+,K+-ATPase β1 subunit tagged with a hexahistidine tail at its N-terminal end (dog) (UniProt P06583)
Assay: pull-down; β1His6 immobilised from RIPA lysate on Ni-NTA resin, washed with 20 mM imidazole; 10 mg protein of prey lysate loaded, overnight at 4 °C; eluted with 500 mM imidazole; immunoblot with anti-β1 and anti-GFP, densitometry normalised to YFP-β1 WT (n = 3)

Row | Substance | pull-down signal relative to YFP-β1 WT (anti-GFP densitometry) | decrease of the pull-down signal against YFP-β1 WT (anti-GFP densitometry)
1 | YFP-β1 M2 (residues 222-224 mutated to alanine) (from UniProt P06583 1-303) (natural protein) | 25% | 
2 | YFP-β1 M3 (residues 227-229 replaced by the equivalent residues of the dog β2 subunit isoform) (from UniProt P06583 1-303) (natural protein) |  | 50 % decrease
3 | YFP-β1 M4 (residues 231-233 mutated to alanine) (from UniProt P06583 1-303) (natural protein) |  | 50 % decrease
